Test results taken from ChEMBL document CHEMBL3232829, “Synthesis and multitarget biological profiling of a novel family of rhein derivatives as disease-modifying anti-Alzheimer agents” (J Med Chem, 2014).

Chains of the proteins cited; added tags and fusions are not shown. Lines headed by an entry give the natural chain unless they say otherwise; changes in a name come on top.
UniProt P22303: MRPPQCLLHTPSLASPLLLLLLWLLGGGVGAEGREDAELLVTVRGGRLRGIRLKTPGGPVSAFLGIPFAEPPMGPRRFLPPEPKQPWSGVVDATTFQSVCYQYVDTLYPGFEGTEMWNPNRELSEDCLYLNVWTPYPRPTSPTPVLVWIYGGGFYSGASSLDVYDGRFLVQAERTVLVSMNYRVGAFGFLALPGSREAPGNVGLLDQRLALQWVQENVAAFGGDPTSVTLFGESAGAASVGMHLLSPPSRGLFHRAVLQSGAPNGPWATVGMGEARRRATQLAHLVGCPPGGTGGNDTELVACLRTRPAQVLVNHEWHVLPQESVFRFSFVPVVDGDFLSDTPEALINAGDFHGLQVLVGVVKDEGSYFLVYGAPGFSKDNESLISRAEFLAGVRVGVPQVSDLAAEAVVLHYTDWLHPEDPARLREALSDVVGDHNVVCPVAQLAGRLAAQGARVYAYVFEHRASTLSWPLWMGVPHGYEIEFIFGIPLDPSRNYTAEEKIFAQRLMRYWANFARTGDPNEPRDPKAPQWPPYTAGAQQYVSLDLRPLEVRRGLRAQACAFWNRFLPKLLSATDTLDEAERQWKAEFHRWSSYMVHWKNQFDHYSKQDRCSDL

Tests used:
[1] = biological target: T1, Acetylcholinesterase (Homo sapiens, UniProt P22303); assay: Inhibition of human recombinant AChE using acetylthiocholine iodide as substrate assessed as dissociation constant for enzyme-inhibitor complex by Lineweaver-Burk plot analysis
[2] = biological target: T1, Acetylcholinesterase; assay: Inhibition of human recombinant AChE using acetylthiocholine iodide as substrate assessed as dissociation constant for enzyme-substrate-inhibitor complex by Lineweaver-Burk plot analysis

With `CC1=C[C@@H]2Cc3nc4cc(Cl)ccc4c(NCCCCCCCCCNC(=O)c4cc(O)c5c(c4)C(=O)c4cccc(O)c4C5=O)c3[C@H](C1)C2` the Ki [1] was 2.65 nM and the Ki [2] was 3.41 nM.
